{"source": "patent US3946040A", "about": "“Propynyl benzyl ethers” (Hoffmann-La Roche Inc., priority 1973, dated 1976)", "type_in_all_cases": "in vivo", "key": {"black bean aphids": {"test_system": "black bean aphids", "assay": "Aphids: seedling of the field bean with black bean aphids sprayed; dead and surviving aphids counted", "conditions": "Methoxychlor alone, I:P 100:0; stated logarithmically (3 = 10^^-3 g/cm^3)", "description": "The experiments described in the following examples are carried out with the following representative examples of the propynyl benzyl ethers (P) of formula I having juvenile hormone-like activity, which can be utilized in combination with an insect-poison (I) to form the active substance for an insecticide composition.\nThe results for each example are provided in a table at the end thereof. The concentration for each LD50 determination is stated logarithmically in terms of the concentration of insect-poison (e.g. 3 =10^^-3 g/cm^3 = 1%). Said LD50 values define the concentration of insect-poison present at which 50% of the insects die or become crippled. In the case where the ratio of insect-poison to propynyl benzyl ether is 0:100 (I:P = 0:100), the LD50 values stated refer to the propynyl benzyl ether itself (and are not based on the insect-poison).\nFor each test, one seedling of the field bean with ca 50-100 black bean aphids is sprayed with a solution of the active ingredient(s) in acetone or an aqueous spray-wash of the active ingredient(s). The seedlings are individually placed in tubes in water. After 24 and 48 hours, the dead and surviving aphids are counted and the activity calculated in %."}, "spider-mites": {"test_system": "spider-mites", "assay": "Spider-mites on sprayed leaf discs, assessment based on the mortality of the spider-mites (W)", "conditions": "Methoxychlor alone, I:P 100:0; stated logarithmically (3 = 10^^-3 g/cm^3)", "description": "(§1) For each test, three beam leaf discs each with a 2-day infection and with 20-40 spider-mites and eggs are sprayed with a solution of the active ingredient(s) in acetone or an aqueous spray-wash of the active ingredient(s). The dosage for each treated surface is 10^^-5 g/cm^2 = 1 kg/ha. After 2 days, the discs are assessed for dead spider-mites and after 6 days for dead spider-mites and killed eggs. (Assessment scheme: from 0-5, where 0 = 0% and 5 = 100% mortality).\nW = assessment based on the mortality of the spider-mites;"}, "spider-mite eggs": {"test_system": "spider-mite eggs", "assay": "Spider-mites on sprayed leaf discs, assessment based on the mortality of the eggs (O)", "conditions": "Methoxychlor alone, I:P 100:0; stated logarithmically (3 = 10^^-3 g/cm^3); 8640 min", "description": "as §1\nO = assessment based on the mortality of the eggs."}, "flies": {"test_system": "flies", "assay": "Flies: placed in sprayed petri dishes; dead or crippled flies counted", "conditions": "Methoxychlor alone, I:P 100:0; after 24 hours; stated logarithmically (3 = 10^^-3 g/cm^3)", "description": "For each test, two petri dishes are sprayed with a solution of the active ingredient(s) in acetone or an aqueous spray-wash of the active ingredient(s). The dosage for each treated surface is 10^^-5 g/cm^2 = 1 kg/ha. After 2-3 hours, 10 flies aged 4-5 days are placed in each petri dish. After 1, 3 and 24 hours, the flies which are dead or crippled are counted."}}, "data": [{"smiles": "COc1ccc(C(c2ccc(OC)cc2)C(Cl)(Cl)Cl)cc1", "note": "[Methoxychlor, 1,1,1-trichloro-2,2,bis-(p-methoxyphenyl)-ethane, reference compound]", "values": [{"measurement": "LD50 concentration based on insect-poison", "setting": "black bean aphids", "value": 3.3}, {"measurement": "LD50 concentration based on insect-poison (W, mortality of the spider-mites)", "setting": "spider-mites", "value": "< 3"}, {"measurement": "LD50 concentration based on insect-poison (O, mortality of the eggs)", "setting": "spider-mite eggs", "value": "< 3"}, {"measurement": "LD50 concentration based on insect-poison", "setting": "flies", "value": 3.8}]}]}
